In BindingDB's records for doi:10.1021/bi9007098 (The University of Texas, 2009) one finds Ki data, which are given here for 1 molecule.

Protein sequences, listed by entry. Tags and fused reporters are not part of them.
UniProt P29475, whole entry: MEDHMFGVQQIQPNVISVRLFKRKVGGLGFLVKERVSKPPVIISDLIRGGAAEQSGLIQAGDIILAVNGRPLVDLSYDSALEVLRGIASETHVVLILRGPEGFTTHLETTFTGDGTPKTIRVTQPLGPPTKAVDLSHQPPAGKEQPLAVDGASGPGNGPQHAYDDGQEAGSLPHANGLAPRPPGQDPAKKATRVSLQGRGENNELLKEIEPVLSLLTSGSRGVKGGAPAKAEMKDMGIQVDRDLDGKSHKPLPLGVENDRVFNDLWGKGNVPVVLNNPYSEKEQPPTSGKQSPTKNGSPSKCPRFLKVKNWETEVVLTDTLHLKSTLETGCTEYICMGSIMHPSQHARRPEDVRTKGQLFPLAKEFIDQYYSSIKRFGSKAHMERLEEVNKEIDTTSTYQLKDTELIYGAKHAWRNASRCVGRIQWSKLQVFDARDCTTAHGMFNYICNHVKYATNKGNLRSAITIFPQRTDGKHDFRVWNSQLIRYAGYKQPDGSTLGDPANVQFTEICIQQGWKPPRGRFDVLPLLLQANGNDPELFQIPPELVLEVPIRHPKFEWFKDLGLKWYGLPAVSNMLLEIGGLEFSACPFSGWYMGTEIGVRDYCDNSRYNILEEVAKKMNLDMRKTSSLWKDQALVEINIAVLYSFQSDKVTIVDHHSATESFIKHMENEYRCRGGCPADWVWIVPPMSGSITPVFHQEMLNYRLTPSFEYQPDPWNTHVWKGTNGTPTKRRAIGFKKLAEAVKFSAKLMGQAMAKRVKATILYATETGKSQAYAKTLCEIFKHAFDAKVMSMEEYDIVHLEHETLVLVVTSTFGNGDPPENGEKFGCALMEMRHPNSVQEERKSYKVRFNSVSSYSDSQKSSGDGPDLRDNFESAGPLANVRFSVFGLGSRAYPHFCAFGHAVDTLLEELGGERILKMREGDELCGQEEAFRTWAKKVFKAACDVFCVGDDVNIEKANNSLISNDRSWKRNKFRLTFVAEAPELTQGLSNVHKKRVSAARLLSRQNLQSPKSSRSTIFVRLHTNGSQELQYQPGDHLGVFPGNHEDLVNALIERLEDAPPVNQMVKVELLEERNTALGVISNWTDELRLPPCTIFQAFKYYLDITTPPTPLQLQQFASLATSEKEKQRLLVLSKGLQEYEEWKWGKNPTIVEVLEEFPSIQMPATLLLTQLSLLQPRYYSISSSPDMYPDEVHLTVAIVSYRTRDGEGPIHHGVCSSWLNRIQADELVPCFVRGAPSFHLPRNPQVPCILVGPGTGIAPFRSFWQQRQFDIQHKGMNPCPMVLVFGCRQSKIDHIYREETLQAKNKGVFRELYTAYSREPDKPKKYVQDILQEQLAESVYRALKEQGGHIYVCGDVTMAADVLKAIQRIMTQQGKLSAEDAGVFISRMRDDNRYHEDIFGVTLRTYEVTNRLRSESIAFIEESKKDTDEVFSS

The test has as its target Nitric oxide synthase, brain (Homo sapiens, UniProt P29475). The test can be described thus: Inhibition Assay. The text has this: Inhibition assay using DDAH-1 and nNOS.

In turn, `CCCCC(=N)NCCC[C@H](N)C(=O)O` [nNOS and DDAH inhibitor, 14] showed a Ki of 20 µM.

As a reminder, the Ki is a dissociation constant, usually derived from enzyme kinetics or from competition with a known ligand. The low end stands for a stronger hold on the target, the high end for a looser hold on the target.
